According to PubChem BioAssay AID2774 (Circadian Research, Kay Laboratory, University of …, 2010):
The list shows a part of the results, in another mix than the full data. Activity calls are given as the source filed them. How the calls were made is not given here.

assay: circadian clock period modulators, cell-based, LOPAC library, luminescence reporter (AID 2774); details: circadian reporter cells, at 7 µM, actives lie on both sides;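 further: values are relative to mean of DMSO wells on each plate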

With N#[O+].[C-]#N.[C-]#N.[C-]#N.[C-]#N.[C-]#N.[Fe+2].[Na+].[Na+] as the compound, how does the period change read?
The period change was inactive: -0.045 h.
